Values of other authors, collected in patent US6287586A, “Pharmaceutical compositions of vanadium biguanide complexes and their use” (priority 1999, dated 2001).

Settings: in vivo; cited from earlier work

CN(C)C(=N)N=C(N)N [Metformin, 1,1-dimethylbiguanide]
binding to liver or plasma proteins (in words): does not bind to liver or plasma proteins
metabolism by the liver (in words): not metabolized by the liver
